The results in this text go back to patent US5861426A, “Nitro compounds of the formula A-Xi -NO2 and their compositions having anti-inflammatory, analgesic and anti-thrombotic activities” (Nicox S.A., priority 1994, dated 1999).

The assay relates to human platelets stimulated by thrombin. Kind of assay: Platelet anti-aggregating activity in vitro. It counts as cell-based. The settings on record: 10^-5 to 10^-7 molar range, natural product = 1.0.

Consider `O=C(O)Cc1ccccc1Nc1c(Cl)cccc1Cl` [DICLOFENAC, reference compound], for which the “platelet anti-aggregating (II), potency ratio versus natural product” value is listed as 1.0.
